IC50 data for one substance are collected here from PMC2916045 (2010).

In the experiment the target is T1, HDAC6 (Homo sapiens, UniProt Q9UBN7).
T1 sequence (Q9UBN7 1-1215): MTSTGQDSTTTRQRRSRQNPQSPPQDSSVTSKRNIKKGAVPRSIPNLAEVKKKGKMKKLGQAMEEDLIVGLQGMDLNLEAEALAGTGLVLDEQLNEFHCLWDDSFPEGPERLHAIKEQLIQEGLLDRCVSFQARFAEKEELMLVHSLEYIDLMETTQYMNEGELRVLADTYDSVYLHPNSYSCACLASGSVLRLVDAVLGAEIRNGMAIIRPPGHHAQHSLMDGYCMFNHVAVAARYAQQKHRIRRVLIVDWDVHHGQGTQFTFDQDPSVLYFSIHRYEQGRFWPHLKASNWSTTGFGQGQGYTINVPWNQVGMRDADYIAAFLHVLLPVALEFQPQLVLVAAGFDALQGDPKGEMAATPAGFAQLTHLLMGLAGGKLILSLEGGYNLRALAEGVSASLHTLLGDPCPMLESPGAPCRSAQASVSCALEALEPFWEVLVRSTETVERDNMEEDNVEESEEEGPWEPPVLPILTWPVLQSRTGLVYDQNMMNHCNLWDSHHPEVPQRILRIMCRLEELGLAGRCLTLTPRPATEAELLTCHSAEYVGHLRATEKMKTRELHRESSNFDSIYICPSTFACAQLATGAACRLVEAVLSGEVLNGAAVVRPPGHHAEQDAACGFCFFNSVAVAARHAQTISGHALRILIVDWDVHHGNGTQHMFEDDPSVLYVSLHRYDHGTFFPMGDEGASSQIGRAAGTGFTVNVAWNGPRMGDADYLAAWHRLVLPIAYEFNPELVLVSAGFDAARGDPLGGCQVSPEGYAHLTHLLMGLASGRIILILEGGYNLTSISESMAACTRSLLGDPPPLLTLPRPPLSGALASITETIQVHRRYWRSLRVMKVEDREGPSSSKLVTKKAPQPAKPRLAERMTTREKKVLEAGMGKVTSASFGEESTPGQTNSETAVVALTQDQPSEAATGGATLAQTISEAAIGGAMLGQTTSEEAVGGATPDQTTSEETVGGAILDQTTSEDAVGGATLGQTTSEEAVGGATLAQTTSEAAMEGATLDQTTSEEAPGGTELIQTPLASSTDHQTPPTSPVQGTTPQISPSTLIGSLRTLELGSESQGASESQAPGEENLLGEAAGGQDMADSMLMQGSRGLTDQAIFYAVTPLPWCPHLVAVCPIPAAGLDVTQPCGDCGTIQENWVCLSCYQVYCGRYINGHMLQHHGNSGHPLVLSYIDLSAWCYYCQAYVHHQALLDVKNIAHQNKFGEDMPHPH
As to the kind of experiment: HDAC6 enzyme inhibition, purified human HDAC protein. Conditions: read-out: HDAC6 IC50 (µM) ± SD; 10-dose, 3-fold serial dilution from 30 µM, duplicate; mean of two experiments (TSA: 9). The format is biochemical.

In general, IC50 refers to the point on the concentration scale where inhibition reaches its midpoint. For the substance ISOX, the IC50 worked out at 0.0024 ± 0.0021 µM.
